# Tests used:
# MES-SA/Dx5 cells = test: chemosensitization effect in doxorubicin-selected mdr1 variant; format: cell-based, human; conditions: agent in the presence of GdT2BET
# MES-SA cells [1] = test: chemosensitization effect in non-MDR cell line; format: cell-based, human; conditions: agent in the presence of GdT2BET; wild-type MES-SA
# MES-SA cells [2] = test: modified MTT cytotoxicity assay, chemotherapeutic agent and GdT2BET added together; conditions: agent with GdT2BET 50, 100, 150 μM; summary of Examples 1 and 3-6
compound,measurement,setting,value
O=P1(N(CCCl)CCCl)NC(O)CCO1 (stereo not drawn),effectiveness in the presence of texaphyrin,MES-SA/Dx5 cells,effective
same,effectiveness in the presence of texaphyrin,MES-SA cells [1],effective
same,IC50 difference relative to control / cytotoxicity in the presence of texaphyrin (FIG. 2),MES-SA cells [2],enhanced cytotoxicity
